Key:
[1] = target: Kordia algicida HPPD "SEQ ID No. 5" (FMP27e) (Kordia algicida, UniProt A9DQF2); assay: HPLC assay of HPPD in vitro kinetic properties; assay type: biochemical
Method: Km, Vmax, and kcat values for different HPPD enzyme preparations and Ki, K1=Kon, and K−1=Koff for different HPPD inhibitors were determined using a HPLC assay for measurements of HPPD activity. […] All assays were started by the addition of HPPD enzyme to the assay mixture and stopped at a series of times between 0 and 240 s by addition of 200 μl of the reaction mixture to reaction assay tubes containing 20 μl 10% perchloric acid. Precipitated protein was pelleted by a 5 minute centrifugation at 10,000 g.
For Km and Vmax value determinations the initial rates of the HPPD reaction at different substrate concentrations were determined from plots of HGA formed versus time and fitted to the Michaelis-Menten equation for unireactant enzymes using the ID Business Solutions Ltd. (idbs.com) XLfit software suite.

Amino acid sequences for entries named in this document (tags omitted). A change or cut given only in a name is not applied to a line headed by its entry.
UniProt A9DQF2, entry or part of it: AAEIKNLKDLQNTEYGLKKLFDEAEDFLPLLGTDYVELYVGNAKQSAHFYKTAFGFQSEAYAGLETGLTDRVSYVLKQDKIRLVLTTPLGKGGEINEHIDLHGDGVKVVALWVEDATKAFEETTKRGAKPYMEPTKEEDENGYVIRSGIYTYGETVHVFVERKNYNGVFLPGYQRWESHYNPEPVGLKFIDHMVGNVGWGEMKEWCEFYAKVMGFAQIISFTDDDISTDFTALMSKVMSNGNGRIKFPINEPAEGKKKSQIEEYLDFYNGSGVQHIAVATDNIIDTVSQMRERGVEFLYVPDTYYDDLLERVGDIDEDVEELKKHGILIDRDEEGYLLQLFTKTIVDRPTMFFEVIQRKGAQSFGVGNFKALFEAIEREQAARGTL

[2] = target: Kordia algicida HPPD "SEQ ID No. 5" (Kordia algicida, UniProt A9DQF2); assay: biochemical; settings: for inhibition at 5 µM: read-out: percentage of inhibition compared to the activity in absence of the inhibitor

SMILES | kon ([1]; read-out: k1 (=Kon)) | koff ([1]; read-out: k−1 (=Koff)) | inhibition at 5 µM [2] | IC50 [2]
CS(=O)(=O)c1cc(C(F)(F)F)ccc1C(=O)C(C#N)C(=O)C1CC1 (centres unmarked) [Diketonitrile, 2-cyano-3-cyclopropyl-1-(2-methylsulphonyl-4-trifluoromethylphenyl)-propane-1,3-dione] | 1100 M⁻¹ s⁻¹ | 0.017 s⁻¹ |  | 
CS(=O)(=O)c1ccc(C(=O)C2C(=O)CCCC2=O)c([N+](=O)[O-])c1 [Mesotrione, 2-[4-(methylsulfonyl)-2-nitrobenzoyl]-1,3-cyclohexanedione] |  |  | 85% | 
CS(=O)(=O)c1ccc(C(=O)C2C(=O)CCCC2=O)c(Cl)c1 [Sulcotrione, 2-[2-chloro-4-(methylsulfonyl)benzoyl]-1,3-cyclohexanedione] |  |  | 85% | < 2.51 µM

— patent publication US20150159169A1, “Plants Tolerant to HPPD Inhibitor Herbicides” (Bayer CropScience AG, priority 2009, published 2015)
